Yeast mating assay 2: variants of the scFv Ab-91

The measurements come from Engelhart et al. 2022 (doi:10.1038/s41597-022-01779-4) through the FLAb antibody collection.

Binding partner: SARS-CoV-2 spike HR2 peptide, sequence PDVDLGDISGINAS.

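The starting antibody came from a phage panning campaign against this peptide. The library (AAYL51) carries one to three amino acid substitutions per variant, with no insertions or deletions. AlphaSeq pools MATa yeast showing the antibodies with MATalpha yeast showing the peptide. Pairs that bind mate more often; barcode pairs of the diploids are counted by sequencing. A regression on co-assayed BCL2-family reference pairs converts the normalised counts of each replicate to an apparent Kd. Mating was done three times.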

Ab-91 is the parent antibody, in scFv form: VL, then three GGGGS repeats, then VH. The light chain is unchanged in all variants.
VL: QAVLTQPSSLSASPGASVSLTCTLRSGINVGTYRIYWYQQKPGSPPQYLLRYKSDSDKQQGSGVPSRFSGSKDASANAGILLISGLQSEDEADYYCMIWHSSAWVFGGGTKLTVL
VH: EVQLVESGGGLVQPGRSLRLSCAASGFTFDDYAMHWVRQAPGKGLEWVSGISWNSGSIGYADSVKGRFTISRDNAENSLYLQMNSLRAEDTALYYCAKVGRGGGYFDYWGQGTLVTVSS

Each variant is given by its three heavy chain CDRs, as the data file delimits them; those of the parent are GFTFDDYAMH, GISWNSGSIGYADSVK, VGRGGGYFDY. The read-out is the apparent dissociation constant on a log10 scale (nM): the lower, the stronger. A mean of the replicates is given; it leaves out those without a signal. Where no diploid with the target was found in that replicate, the entry reads "ND": below detection, most likely a poor binder, though not proof of it. In this assay the parent's reference entry averaged 1.86; its copy inside this library read 0.88.

{"CDR-H1": "GFTFDDYAMH", "CDR-H2": "GISWESGSIGYADSVK", "CDR-H3": "VMRGGGYFDY", "log10 Kd, replicates": "1.31 1.40 0.75", "log10 Kd (nM), mean": "1.15", "signal with controls": "5 of 9 (4.56)"}
{"CDR-H1": "WFTFDDYAMH", "CDR-H2": "GISWNSGSIHYADSVK", "CDR-H3": "TGRGGGYFDY", "log10 Kd, replicates": "4.41 ND ND", "log10 Kd (nM), mean": "4.41", "signal with controls": "0 of 9"}
{"CDR-H1": "GFTFDDYAMH", "CDR-H2": "GISWNSGSIGYADSVK", "CDR-H3": "HGRGGKYFDV", "log10 Kd, replicates": "4.69 5.20 ND", "log10 Kd (nM), mean": "4.94", "signal with controls": "5 of 9 (4.96)"}
{"CDR-H1": "GFTFDDNAMH", "CDR-H2": "GISWNSGSIGYADSVK", "CDR-H3": "VGRGAGYFDY", "log10 Kd, replicates": "4.55 ND ND", "log10 Kd (nM), mean": "4.55", "signal with controls": "3 of 9 (5.23)"}
{"CDR-H1": "GFTFDDYAMH", "CDR-H2": "GISWLSGSIGYADSVK", "CDR-H3": "VFRGGGYFDY", "log10 Kd, replicates": "ND ND ND", "log10 Kd (nM), mean": "ND", "signal with controls": "0 of 9"}
{"CDR-H1": "GFTFDDRAMH", "CDR-H2": "GISWNSGSIGYADSVQ", "CDR-H3": "VGRGGFYFDY", "log10 Kd, replicates": "ND ND ND", "log10 Kd (nM), mean": "ND", "signal with controls": "0 of 9"}
{"CDR-H1": "GFTFDDYAMH", "CDR-H2": "GRSWNSESIGYADSCK", "CDR-H3": "VGRGGGYFDY", "log10 Kd, replicates": "3.00 ND ND", "log10 Kd (nM), mean": "3.00", "signal with controls": "0 of 9"}
{"CDR-H1": "DFTFDVYAMH", "CDR-H2": "GISWNSGSIGYADSVE", "CDR-H3": "VGRGGGYFDY", "log10 Kd, replicates": "ND ND ND", "log10 Kd (nM), mean": "ND", "signal with controls": "2 of 9 (4.56)"}
{"CDR-H1": "GFTFDDYAMH", "CDR-H2": "GISKNSGSIGYADDVK", "CDR-H3": "VGRLGGYFDY", "log10 Kd, replicates": "2.87 2.95 2.78", "log10 Kd (nM), mean": "2.87", "signal with controls": "6 of 9 (4.67)"}
{"CDR-H1": "GFDFDDYAMH", "CDR-H2": "WISWNSGSIGYADSVK", "CDR-H3": "IGRGGGYFDY", "log10 Kd, replicates": "4.25 4.16 ND", "log10 Kd (nM), mean": "4.21", "signal with controls": "6 of 9 (4.74)"}
{"CDR-H1": "DFTFDDYAMH", "CDR-H2": "GISWNNGSIGYADSDK", "CDR-H3": "VGRGGGYFDY", "log10 Kd, replicates": "4.19 ND 5.00", "log10 Kd (nM), mean": "4.59", "signal with controls": "4 of 9 (4.98)"}
{"CDR-H1": "GFTFDDYAMH", "CDR-H2": "GISNNSISIGYADSVK", "CDR-H3": "VGRNGGYFDY", "log10 Kd, replicates": "ND ND 2.24", "log10 Kd (nM), mean": "2.24", "signal with controls": "1 of 9 (4.06)"}
{"CDR-H1": "YFFFDDYAMH", "CDR-H2": "GISWNSGSIGKADSVK", "CDR-H3": "VGRGGGYFDY", "log10 Kd, replicates": "ND 5.97 4.75", "log10 Kd (nM), mean": "5.36", "signal with controls": "2 of 9 (4.60)"}
{"CDR-H1": "GFTFDDYAMH", "CDR-H2": "GLSWNSGSHGYADSVK", "CDR-H3": "VTRGGGYFDY", "log10 Kd, replicates": "ND ND ND", "log10 Kd (nM), mean": "ND", "signal with controls": "2 of 9 (3.56)"}
{"CDR-H1": "CFTFKDYAMH", "CDR-H2": "GISWNSGSIGYADSFK", "CDR-H3": "VGRGGGYFDY", "log10 Kd, replicates": "ND ND ND", "log10 Kd (nM), mean": "ND", "signal with controls": "1 of 9 (2.60)"}
{"CDR-H1": "MFTFDDWAMH", "CDR-H2": "WISWNSGSIGYADSVK", "CDR-H3": "VGRGGGYFDY", "log10 Kd, replicates": "ND 3.06 ND", "log10 Kd (nM), mean": "3.06", "signal with controls": "0 of 9"}
{"CDR-H1": "GFTPLDYAMH", "CDR-H2": "GISWNSGTIGYADSVK", "CDR-H3": "VGRGGGYFDY", "log10 Kd, replicates": "4.61 4.72 ND", "log10 Kd (nM), mean": "4.66", "signal with controls": "3 of 9 (4.99)"}
{"CDR-H1": "GFTFDDYAMH", "CDR-H2": "GYSWNWGSIGYADSVK", "CDR-H3": "VGRGGGYFDY", "log10 Kd, replicates": "3.41 4.46 ND", "log10 Kd (nM), mean": "3.94", "signal with controls": "3 of 9 (5.80)"}
{"CDR-H1": "GFTFDDYAMH", "CDR-H2": "GISWNSGSCGYADSVK", "CDR-H3": "WGRGGGYGDY", "log10 Kd, replicates": "3.47 3.00 3.09", "log10 Kd (nM), mean": "3.19", "signal with controls": "1 of 9 (4.26)"}
{"CDR-H1": "GFTFDDYAMH", "CDR-H2": "GIFWNSGSIGYADSVK", "CDR-H3": "VGRGTGYFDY", "log10 Kd, replicates": "ND ND ND", "log10 Kd (nM), mean": "ND", "signal with controls": "0 of 9"}
{"CDR-H1": "GFTFDDYAMH", "CDR-H2": "PISWNSGSIGYADSVK", "CDR-H3": "VFRGGGYFNY", "log10 Kd, replicates": "ND ND ND", "log10 Kd (nM), mean": "ND", "signal with controls": "0 of 9"}

The first 2 entries again:

| CDR-H1 | CDR-H2 | CDR-H3 | log10 Kd, replicates | log10 Kd (nM), mean | signal with controls |
|---|---|---|---|---|---|
| GFTFDDYAMH | GISWESGSIGYADSVK | VMRGGGYFDY | 1.31 1.40 0.75 | 1.15 | 5 of 9 (4.56) |
| WFTFDDYAMH | GISWNSGSIHYADSVK | TGRGGGYFDY | 4.41 ND ND | 4.41 | 0 of 9 |

Three control strains display no target. For library AAYL51, 21% of the pairings with them gave a signal, with a median of 4.54 and one signal in twenty below 3.26, so weak values seen in few replicates may be background. Also given: how often the same scFv was detected with the empty control strains, with their mean in brackets.